From PubChem BioAssay AID1847 (The Scripps Research Institute Molecular Screening Center, 2009)
The entries are a selection whose mix differs from that of the whole data set. Active and inactive are the calls of the source.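 Rule for the calls: active = inhibition above the mean inhibition of all tested sample wells plus 3 SD (cut at about 10% in these data); inactive = the rest.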

The chains behind the UniProt entries cited, without tags or fusion partners.
UniProt P08659, whole entry, looked up: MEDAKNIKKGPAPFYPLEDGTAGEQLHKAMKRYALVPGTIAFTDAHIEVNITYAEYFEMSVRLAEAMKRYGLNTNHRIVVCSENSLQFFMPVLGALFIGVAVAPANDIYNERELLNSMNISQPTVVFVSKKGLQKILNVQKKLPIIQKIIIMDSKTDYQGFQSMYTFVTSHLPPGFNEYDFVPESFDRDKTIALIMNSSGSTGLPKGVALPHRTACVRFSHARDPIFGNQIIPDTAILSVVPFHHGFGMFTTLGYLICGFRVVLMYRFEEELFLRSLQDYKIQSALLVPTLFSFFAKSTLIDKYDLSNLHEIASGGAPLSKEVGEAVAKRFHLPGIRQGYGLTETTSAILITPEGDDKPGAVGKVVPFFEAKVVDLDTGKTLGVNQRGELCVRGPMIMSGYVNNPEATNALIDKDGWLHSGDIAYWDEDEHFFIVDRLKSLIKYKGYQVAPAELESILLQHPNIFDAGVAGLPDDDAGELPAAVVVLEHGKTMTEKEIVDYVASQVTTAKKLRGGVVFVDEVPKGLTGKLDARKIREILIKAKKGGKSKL

The molecules below were run against Luciferin 4-monooxygenase (Photinus pyralis) (UniProt P08659) (assay: native FLuc enzyme inhibition – biochemical, luminescence, triplicate, artefact control for HSP90 inhibitor project, confirmation (AID 1847;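 note: 0% = DMSO with luciferase and 100% = wells lacking luciferase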)). Details: purified native firefly luciferase, at 5.9 µM, active compounds read high.

Row | Structure (SMILES) | inhibition
1 | O=C(O)c1ccccc1[As](=O)(O)O | inactive: -2.8%
2 | O=P(Nc1nccs1)(c1ccccc1)c1nc2ccccc2s1 (configuration not stated) | inactive: -2.47%
